The values below are quoted from earlier work in patent US8034904B2, “Anti-IGF-I receptor antibody” (Immunogen Inc., priority 2002, dated 2011).

The series has as its system multiple myeloma. Conditions: after 27 months of follow-up; 3 X 10^6 IU/m^2 subcutaneously three times weekly; cited from earlier work.

Turning to “IFN-α2: recombinant IFN-α2 given as remission maintenance”, the evaluable patients relapsed is on record as 24%.
